Test results taken from patent publication US20030054004A1 (published 2003).

Sequences of proteins named here, by UniProt entry; tags and fusion partners are left off. Residues count along the entry.
UniProt P01375, 77-233: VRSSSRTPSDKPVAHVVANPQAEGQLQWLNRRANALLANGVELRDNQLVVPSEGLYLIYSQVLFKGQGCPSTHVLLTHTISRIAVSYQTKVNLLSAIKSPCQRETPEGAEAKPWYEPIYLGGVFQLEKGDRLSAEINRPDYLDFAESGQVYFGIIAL

B1: mouse anti-human TNF IgG1 mAb A2 (antibody, V domains shown)
VH: EVKLEESGGGLVQPGGSMKLSCVASGFIFSNHWMNWVRQSPEKGLEWVAEIRSKSINSATHYAESVKGRFTISRDDSKSAVYLQMTDLRTEDTGVYYCSRNYYGSTYDYWGQGTTLTVS
VL: DILLTQSPAILSVSPGERVSFSCRASQFVGSSIHWYQQRTNGSPRLLIKYASESMSGIPSRFSGSGSGTDFTLSINTVESEDIADYYCQQSHSWPFTFGSGTNLEVK
notes: Mouse IgG1 from hybridoma A2 (cell line c134A); also called murine A2; mA2
B2: chimeric A2 (cA2) anti-TNF antibody (antibody, V domains shown)
VH: B1 VH
VL: B1 VL
notes: Expressed in SP2/0 cells (cell line c168A); also called chimeric mAb cA2

Target: T1, recombinant human TNFα (human, UniProt P01375 77-233)
T1 construct: E. coli-derived or bought recombinant human TNF (Suntory, Dainippon, R&D Systems); also called rhTNF; rhTNFα
Assay: Scatchard analysis, direct binding of 125I-labelled antibody to rhTNFα immobilized in a 96-well plate

Binder	Ka
B1	5e+08 M⁻¹
B2	1.8e+09 M⁻¹
